Experiments:
[1] = tested on: MDA-MB231 cells (HLA-DR+) in blood; assay: HLA-DR+ (MDA-MB231) cells in peripheral blood of xenografted mice by FACS; type: in vivo
Experimental: FIG. 11. Effect of HB-19 on metastatic tumour cells in a MDA-MB231 xenograft model. Investigation of MDA-MB231 cells in the blood of xenografted mice and treated or not with HB-19 was performed by flux cytometry (FACS) using anti HLA-DR antibodies. HLA-DR^+ are surrounded and the percentage of HLA-DR^+ cells among blood cells is indicated. A. Blood of mice without an MDA-MB231 xenograft, untreated, percentage of HLA-DR^+ cells among peripheral blood cells: 0.36% B. Blood of mice without an MDA-MB231 xenograft, untreated, percentage of HLA-DR+ cells among peripheral blood cells: 22.2% C. Blood of mice with MDA-MB231 xenograft, treated with HB-19 by subcutaneous route, percentage of HLA-DR+ cells among peripheral blood cells: 0.1% D. Blood of mice with an MDA-MB231 xenograft, treated with HB-19 by intraperitoneal route, percentage of HLA-DR+ cells among peripheral blood cells: 0.31%.
Moreover, it was not possible to detect HLA-DR^+ human cells (therefore MDA-MB231 tumour cells) in the peripheral blood cells of xenografted mice treated with HB-19 (FIG. 11). In fact, contrary to untreated mice (PBS) in which the proportion of MDA-MB231 cells (HLA-DR^+) represents 22.2% of peripheral blood cells, this proportion is only 0.1% to 0.31% in the case of mice treated with HB-19 by subcutaneous or intraperitoneal route.

By UniProt entry, the sequences of proteins in these tests, tags left out.
UniProt P19338, whole entry: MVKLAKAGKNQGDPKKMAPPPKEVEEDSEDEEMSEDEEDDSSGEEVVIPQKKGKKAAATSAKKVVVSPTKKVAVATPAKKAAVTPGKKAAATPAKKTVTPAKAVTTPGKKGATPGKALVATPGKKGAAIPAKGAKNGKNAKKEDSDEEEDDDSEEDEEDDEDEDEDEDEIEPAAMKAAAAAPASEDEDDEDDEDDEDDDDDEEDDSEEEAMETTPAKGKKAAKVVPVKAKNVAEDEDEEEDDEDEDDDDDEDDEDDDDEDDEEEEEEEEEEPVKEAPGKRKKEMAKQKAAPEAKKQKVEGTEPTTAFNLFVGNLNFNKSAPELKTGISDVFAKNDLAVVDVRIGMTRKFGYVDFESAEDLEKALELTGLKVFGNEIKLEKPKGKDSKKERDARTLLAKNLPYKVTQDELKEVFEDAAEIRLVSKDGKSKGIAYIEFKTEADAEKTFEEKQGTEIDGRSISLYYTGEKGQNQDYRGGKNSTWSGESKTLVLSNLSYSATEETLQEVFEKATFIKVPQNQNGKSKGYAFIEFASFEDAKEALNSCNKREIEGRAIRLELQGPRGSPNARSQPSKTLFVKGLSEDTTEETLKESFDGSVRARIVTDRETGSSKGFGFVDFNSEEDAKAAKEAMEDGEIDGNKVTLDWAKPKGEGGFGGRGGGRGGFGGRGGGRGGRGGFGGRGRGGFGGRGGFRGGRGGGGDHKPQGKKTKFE

surface nucleolin = surface nucleolin (Homo sapiens, UniProt P19338); assay: Surface nucleolin expression of MDA-MB 231 cells (biotinylated HB-19 pull-down, immunoblot); type: cell-based; set-up: cell expression of nucleolin by MDA-MB 231 cells; endogenous in cells; host or cells: MDA-MB 231 cells; details: 10 μM
Experimental: FIG. 16. Inhibitory effect of HB-19, Nucant 3, Nucant 6 and de Nucant 7 on cell expression of nucleolin by MDA-MB 231 cells. MDA-MB 231 cells were cultured in 75 cm^2 in DMEM containing 10% foetal calf serum. After 2 days in culture, subconfluent cells (about 3×10^6 cell per vial) were treated with 10 μM of HB-19, Nucant 3, Nucant 6 or Nucant 7 for 24 or 48 hours. Lines C represent untreated cells. After 24 or 48 hours of treatment, cells were washed in PBS and incubated with 10 ml of DMEM containing 1% foetal calf serum and biotinylated HB-19 (5 μM) for 45 minutes at room temperature. After intensive washing in PBS containing 1 mM EDTA (PBS-EDTA), cytoplasmic extracts were prepared using a lysis buffer containing 20 mM Tris HCl, pH 7.6, 150 mM NaCl, 5 mM MgCl2, 0.2 mM phenylmethylsulfonyl fluoride, 5 mM β-mercaptoethanol, aprotinin (1000 U/ml) and 0.5% Triton X-100. The complex formed between surface nucleolin and biotinylated HB-19 was isolated purification of the extracts using avidine-agarose (100 μl; ImmunoPure Immobilized Avidin, Pierce Chemical Company, USA) in PBS-EDTA. After 2 hours of incubation at 4° C., the avidine-agarose samples were thoroughly washed with PBS-EDTA. These samples containing purified surface nucleolin (A material corresponding to 2×10^6 cells) and crude cell extracts (B and C; material corresponding to 4×10^5 cells) were denatured by heating in electrophoresis buffer containing SDS and analysed by SDS-PAGE. […] Electrophoresis analysis after staining with Coomassie Blue is shown in C. Line M corresponds to molecular weight markers.

[2] = Half-life in serum at 37° C.; type: in vitro ADME; details: human or bovine (foetal calf); human serum or foetal calf serum at 37° C.
Excerpt: The term “standard peptide bond” means an amide bond of formula (—CONH—) which is normally present between 2 amino acids in a natural protein. Such a bond is sensitive to the action of proteases. The term “modified peptide bonds Ψ” means a chemical bond between 2 amino acids of chemical formula distinct from the standard peptide bond of formula (—CONH—). […] The term “protease”, also known as “peptidase” or “proteolytic enzyme”, means any enzyme which cleaves the standard peptide bonds in proteins. This process is known as proteolytic cleavage. This involves the use of a water molecule which is what leads to proteases being classified as hydrolases. The proteases namely include proteases known as N-peptidases which carry out the cleavage of the N-terminal end of proteins. These proteases are particularly inconvenient in terms of the in vivo stability of peptides without modified peptide bonds.

[3] = tested on: endothelial cells (CD31+, factor VIII+) in matrigel; assay: In vivo angiogenesis model (matrigel plug assay); set-up: species or system mice; details: subcutaneous matrigel, one week
Experimental: FIG. 8. Effect of HB-19 on angiogenesis. A. Effect of HB19 tested on in vitro proliferation of HUVEC cells. 20000 HUVEC cells were cultured in wells and compound HB19 was added in different concentrations on each day. Cells were counted after 6 days of treatment. B. Effect of HB19 (1 μM) on the differentiation of HUVEC cells in a three-dimensional collagen gel cultured in the presence of HARP angiogenic factors (1 nM); VEGF (1 nM) and FGF-2 (3 nM) were also tested. After 4 days, tubular network structures were counted. The results are presented in arbitrary units. C. Effect of HB-19 on angiogenesis triggered HARP or FGF-2 in an in vivo angiogenesis model (/matrigel <<plug assay>>). Matrigel (300 μl) containing the indicated molecules is injected subcutaneously into mice. Mice were sacrificed after one week and matrigel was removed. 8 μm thick cuts were performed. After staining, the number of endothelial cells is estimated by image analysis. For each matrigel, 5 cuts and 4 mice were analysed per experimental point.
This experimental model of angiogenesis consists in subcutaneously injecting mice with matrigel containing the substance to be analysed for its angiogenesis stimulating or inhibiting properties. Matrigel was removed one week later, histological cuts were taken and the number of endothelial cells (CD31+, factor VIII+) was quantified by image analysis after immunohistochemistry.

Which “percentage of HLA-DR+ cells among peripheral blood cells” value ([1]; treated by intraperitoneal route) does the source give for `CCCC[C@H](NC(=O)[C@H](CCCCNC(=O)[C@H](CCCNC(=N)N)NC(=O)[C@@H]1CCCN1C[C@@H](N)CCCCN)NC(=O)[C@H](CCC(=O)O)NC(=O)[C@H](CCCCNC(=O)[C@H](CCCNC(=N)N)NC(=O)[C@@H]1CCCN1C[C@@H](N)CCCCN)NC(=O)[C@@H]1CCCN1C(=O)CNC(=O)[C@H](CCCCNC(=O)[C@H](CCCNC(=N)N)NC(=O)[C@@H]1CCCN1C[C@@H](N)CCCCN)NC(=O)[C@H](CCCCN)NC(=O)[C@H](CCCCNC(=O)[C@H](CCCNC(=N)N)NC(=O)[C@@H]1CCCN1C[C@@H](N)CCCCN)NC(=O)[C@H](CCCNC(=N)N)NC(=O)[C@@H]1CCCN1C[C@@H](N)CCCCN)C(N)=O` [HB19, 5[Kpsi(CH2N)PR]-TASP] here?
The value was 0.31%.

And the “percentage of HLA-DR+ cells among peripheral blood cells” value ([1]; treated by subcutaneous route)?
Its value is 0.1%.

And the “presence of surface nucleolin compared to untreated cells” value (surface nucleolin; 24 hours of treatment)?
The value was “reduction”.

And the “presence of surface nucleolin” value (surface nucleolin; 48 hours of treatment)?
Its value is “non-detectable”.

And the cytotoxic effect (surface nucleolin; MDA-MB 231 cells)?
The cytotoxic effect was “no cytotoxic effect”.

And the half-life [2]?
Its half-life is > 24 h.

What about the “angiogenesis triggered by HARP or FGF-2” value [3] of the same compound?
Its value is “inhibits angiogenesis”.

What about the “recruitment of endothelial cells in matrigel, compound alone” value ([3]; no angiogenic factor) of the same compound?
The value was “no effect”.

From US8497349B2, “Use of multivalent synthetic ligands of surface nucleolin for treating cancer or inflammation” (Centre National de la Recherche Scientifique (CNRS), priority 2006, dated 2013)
